PubChem BioAssay AID720553 (National Center for Advancing Translational Sciences (NCATS), 2013)
This is a selection; strong and weak results do not stand in their true shares. Calls of active or inactive are those of the source.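 Rule for the calls: active = maximum activity change below -70%; inconclusive = maximum activity change from -70% to -50%; inactive = maximum activity change above -50%.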

test system: Potassium voltage-gated channel subfamily H member 2, brain isoform KCNH2 3.1 (human); assay: qHTS for Inhibitors of KCHN2 3.1: Mutant qHTS; settings: U2OS KCNH2 3.1, thallium flux FluxOr; active compounds read low
Excerpt: Many antipsychotic drugs that inhibit the neurotransmitter dopamine also bind to hERG1 channel which might help explain their antipsychotic activity but also produces cardiac side effects. The discovery of the novel KCNH2 3.1 isoform offers a potential new target for the development of antipsychotic drugs without cardiac side effects. This proposal will use a high throughput thallium flux assay developed for KCNH2 to screen compounds that modulate the activity of KCNH2 3.1. The wild type KCNH2 channel will also be screened in parallel to help define the selective modulators of this KCNH2 3.1 potassium channel. The resulting compounds will be validated in electrophysiology experiments. The availability of animal models will allow future testing in vivo for effects on memory and other aspects of animal physiology linked with psychosis. NIH Chemical Genomics Center [NCGC] NIH Molecular Libraries Probe Centers Network [MLPCN] MLPCN Grant: MH096539 Assay Submitter (PI): James Barrow, Johns Hopkins University, Lieber Institute for Brain Development
U2OS cells were resuspended in cell media containing 10% fetal calf serum (FCS) at a concentration of 2 million cells / mL. The solution was treated with the mutant (3.1) virus at 1.77 x 10^8 / mL and allowed to incubate at room temperature in the dark. After 4 hours of incubation, DMEM + 10% fetal bovine serum (FBS) was added to the cell solution. Three microliter was then dispensed into a 1536 tissue culture treated black assay plates which were incubated overnight at 37 C. Two microliter of loading buffer (HBSS + HEPES + Red40 dye quencher + FluxOr dye) was added and the assay plates were incubated for 45 min at room temperature in the dark. […] A stimulation buffer was added to the plate and the second kinetic read (2 min) was obtained. The rate constant was calculated from the kinetic reads and normalized to the positive and negative DMSO controls.
% is set by controls: 0 for no effect and ±100 for the full control effect.

Row | SMILES | activity change
1 | O=C(OCCN1CCN(CCOCc2ccccc2)CC1)C(O)(c1ccccc1)c1ccccc1 | inactive: 9.05%
2 | CP(=O)(Nc1ccccc1F)Oc1ccccc1 (stereo unspecified) | inactive: 4.99%
3 | CC(C)c1ccc(OP(C)(=O)Nc2ccc(SC(F)(F)F)cc2)cc1 (stereo unspecified) | inactive: -8.26%
4 | Cc1c([N+](=O)[O-])cc([N+](=O)[O-])c(Br)c1[N+](=O)[O-] | inactive: -4.18%
5 | CCN(CC)CCCOC(=O)C(O)(c1ccccc1)C1CCCCC1 (stereo unspecified) | inactive: -0.586%
6 | CP(=O)(Nc1ccccc1)Oc1ccc(F)cc1 (stereo unspecified) | inactive: 8.4%
7 | CCCCCOc1ccc(NP(C)(=O)Oc2ccc(Cl)cc2Cl)cc1 (stereo unspecified) | inactive: 2.44%
8 | CCOC(=O)c1ccc(NP(C)(=O)Oc2ccc(F)cc2)cc1 (stereo unspecified) | inactive: 13.5%
9 | COc1ccc(OP(C)(=O)Nc2ccc(SC(F)(F)F)cc2)cc1 (stereo unspecified) | inactive: 7.27%
10 | O=[N+]([O-])c1ccc(OP2(=O)COCCO2)cc1 (stereo unspecified) | inactive: 3.89%
11 | Cc1cc(-c2cccc3ccccc23)c(C)cn1.O=[N+]([O-])c1cc([N+](=O)[O-])c(O)c([N+](=O)[O-])c1 | inactive: 4.6%
12 | Cc1c(C(c2ccc3c(c2)OCO3)c2c(C)n(C)n(-c3ccccc3)c2=O)c(=O)n(-c2ccccc2)n1C.O=[N+]([O-])c1cc([N+](=O)[O-])c(O)c([N+](=O)[O-])c1 | inactive: -17.6%
13 | COc1ccc(OP(C)(=O)Nc2cccc(Br)c2)cc1 (stereo unspecified) | inactive: 9.68%
14 | CN(C)CCOC(=O)C(O)(c1ccccc1)C1CCCCC1 (stereo unspecified) | inactive: 0.0391%
15 | COc1ccc(NP(C)(=O)Oc2ccccc2OC)cc1 (stereo unspecified) | inactive: 5.33%
16 | CP(=O)(Nc1ccc2c(c1)OCCO2)Oc1ccccc1 (stereo unspecified) | inactive: -2.06%
17 | Cc1ccccc1NP(C)(=O)Nc1ccccc1C | inactive: 2.12%
18 | CP(=O)(Nc1ccc(SC(F)(F)F)cc1)Oc1ccc(F)cc1 (stereo unspecified) | inactive: 3.11%
19 | CCOP(C)(=S)SCC(=O)NC(C)(CC)C(=O)O (stereo unspecified) | inactive: -7.18%
20 | CC(C)(C)c1ccc(OP(C)(=O)O)cc1 | inactive: 4.27%
21 | COc1ccccc1OP(C)(=O)Nc1ccccc1Br (stereo unspecified) | inactive: -3.62%
22 | CP(=O)(Nc1ccc(Cl)cc1)Oc1ccc(F)cc1 (stereo unspecified) | inactive: -10.8%
23 | CN(C)C(=O)c1c([N+](=O)[O-])cc([N+](=O)[O-])cc1[N+](=O)[O-] | inactive: -8.1%
24 | COc1ccc(OP(C)(=O)Nc2ccc(Br)cc2)cc1 (stereo unspecified) | inactive: 12.3%
25 | CCN(CC)CC(O)COC(=O)C(O)(c1ccccc1)C1CCCCC1 (stereo unspecified) | inactive: 5.3%
26 | O=C(OCCCN1CCCC1)C(O)(c1ccccc1)C1CCCCC1 (stereo unspecified) | inactive: 14.3%
